From PubChem BioAssay AID1851 (National Center for Advancing Translational Sciences (NCATS), 2009)
Shown are results outside the selection of hits, which stands elsewhere. Records with an inconclusive call do not appear. Calls of active or inactive are those of the source. Calls follow the shape of the dose curve; as a rule, active = well fitted curve in the direction sought with a large enough effect; inconclusive = small, poorly fitted or top-dose-only effect, or effect the other way; inactive = no such curve, though single readings can be large or run the other way.

Protein sequences, listed by entry. Tags and fused reporters are not part of them.
UniProt P11712, whole entry, looked up: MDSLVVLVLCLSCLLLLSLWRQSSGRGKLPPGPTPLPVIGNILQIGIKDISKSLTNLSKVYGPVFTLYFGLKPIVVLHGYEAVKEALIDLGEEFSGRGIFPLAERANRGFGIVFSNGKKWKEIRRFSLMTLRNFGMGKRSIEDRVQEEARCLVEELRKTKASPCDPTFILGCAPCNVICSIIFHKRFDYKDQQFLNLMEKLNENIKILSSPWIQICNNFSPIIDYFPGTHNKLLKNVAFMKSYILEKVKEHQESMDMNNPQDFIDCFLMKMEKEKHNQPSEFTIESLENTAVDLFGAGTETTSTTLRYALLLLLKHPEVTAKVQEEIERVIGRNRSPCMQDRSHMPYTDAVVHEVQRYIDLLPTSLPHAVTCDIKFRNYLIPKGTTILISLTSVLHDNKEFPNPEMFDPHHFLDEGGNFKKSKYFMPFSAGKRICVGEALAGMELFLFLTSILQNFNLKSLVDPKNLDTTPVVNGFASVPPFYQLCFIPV

target: Cytochrome P450 2C9 (Homo sapiens) (UniProt P11712); test: Cytochrome panel assay with activity outcomes; conditions: recombinant CYP, pro-luciferin dealkylation, luminescence, p450-cyp2c9; series mostly up to 57.1 µM; activity, negative = inhibition: at the top concentration
% is scaled to controls: 0 for no effect and ±100 for the full control effect.

| SMILES | activity, negative = inhibition | AC50 |
| --- | --- | --- |
| O=C(c1cnccn1)N1CCC[C@@]2(CCN(c3ccccc3)C2)C1 | inactive: -2.17% | – |
| O=C(c1csnn1)N1CCC[C@@]2(CCN(c3ccccn3)C2)C1 | inactive: -0.623% | – |
| COc1cccc(Cn2c(=O)cnc3cnc(OCc4ccccc4)nc32)c1 | inactive: -21.4% | – |
| O=C(c1cnccn1)N1CCC[C@@]2(CCN(Cc3nccs3)C2)C1 | inactive: 0.582% | – |
| COc1ccc(NC(=O)N2CC[C@@]3(CCCN(C(=O)c4csnn4)C3)C2)cc1 | inactive: 4.14% | – |
| CC(C)CN1CCC2(CC1)CCN(C(=O)c1csnn1)CC2 | inactive: 7.55% | – |
| O=C(c1csnn1)N1CCC[C@@]2(CCN(c3ccncc3)C2)C1 | inactive: -8.62% | – |
| O=C(c1ccco1)N1CCC2(CC1)CCN(c1cccc(-c3ccccc3)c1)CC2 | inactive: -29.1% | – |
| C#C[C@]1(O)CC[C@@H]2[C@H]3CCC4=Cc5oncc5C[C@]4(C)[C@@H]3CC[C@@]21C | – | active: 1.26 µM |
| COc1ccc(-n2c(=O)c(-c3cccs3)nc3cnc(Nc4ccccc4)nc32)cc1 | inactive: 18.1% | – |
| O=C(Nc1cccc(F)c1)N1CC[C@@]2(CCCN(C(=O)c3ccco3)C2)C1 | inactive: -5.03% | – |
| N#CCCn1c(=O)c(-c2ccc(Cl)cc2)nc2cnc(OCc3ccccc3)nc21 | inactive: -15.1% | – |
| CC(C)NC(=O)N1CCC2(CC1)CCN(C(=O)c1csnn1)CC2 | inactive: 1.81% | – |
| C#C[C@]1(O)CC[C@H]2[C@H]3CCC4=Cc5oncc5C[C@]4(C)[C@@H]3CC[C@]21C | inactive: 10.1% | – |
| O=C(c1csnn1)N1CCC2(CC1)CCN(C(c1ccccc1)c1ccccc1)CC2 | inactive: -19.1% | – |
| COc1ccccc1CN1CCCC2(CCN(C(=O)c3csnn3)CC2)C1 | inactive: 12.8% | – |
| Cc1nc2cnc(Oc3ccccc3)nc2n(CCC#N)c1=O | inactive: -23.8% | – |
| O=C(Nc1cccc(F)c1)N1CC[C@@]2(CCCN(S(=O)(=O)c3ccccc3)C2)C1 | inactive: -27.9% | – |
| COCCn1c(=O)c(CCc2ccccc2)nc2cncnc21 | inactive: -27.4% | – |
| COCCn1c(=O)c(-c2cccc(C#N)c2)nc2cnc(Nc3ccccc3)nc21 | inactive: -11.8% | – |
| Cn1c(=O)cnc2cnc(Oc3ccccc3)nc21 | inactive: -8.83% | – |
| COc1ccccc1CN1CCC2(CC1)CCN(C(=O)c1csnn1)CC2 | inactive: -4.34% | – |
| O=C(Oc1ccccc1)N1CCC2(CCCN(c3cccc(-c4ccccc4)c3)C2)CC1 | inactive: -8.86% | – |
| COCCn1c(=O)c(-c2ccccc2)nc2cncnc21 | inactive: -4.04% | – |
| O=C(c1csnn1)N1CCC[C@@]2(CCN(c3ncccn3)C2)C1 | inactive: -10.7% | – |
| N#Cc1ccc(CN2CCC3(CC2)CCN(C(=O)c2csnn2)CC3)cc1 | inactive: 10.6% | – |
| COC(=O)N1CCC2(CC1)CN(c1cccc(-c3ccccc3)c1)C2 | inactive: 2.16% | – |
